Cneo AK release: causes C. neoformans cell lysis; adenylate kinase release luminescence, 4 h; normalised: neutral wells 0, clomiphene wells 100; lysis activity, % at 15 µM; actives 0.2% (n = 360,000);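 active = mean lysis activity across replicates of at least 80%, whatever share of replicates individually reach that level; inactive = mean lysis activity below 80%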
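Signal: Adenylate kinase release luminescence | Assay system: Log-phase Cryptococcus neoformans yeast cells | Input: Cells at 5 × 10^6 per mL | Buffer or medium: Fresh YPD growth medium | Compound: Single dose | Schedule: Static 4 h at 37 °C with compound, 1 h detection | Controls: Clomiphene | Read-out: Luminescence rise reflecting yeast cell lysis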
UUG fidelity: modulators of start codon recognition fidelity in yeast. S. cerevisiae UUG-firefly luciferase reporter, luminescence/redox ratio. activity score, % at 18.7 µM. 0.13% of 350,000 active. AID 602363;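 active = replicate mean at a twofold rise or more, about +100% in these data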;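 also: firefly luciferase made from a UUG start codon reports start codon fidelity; reporter light over untreated wells divided by growth signal over untreated wells; some hits fall short of that in this replicate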
E-sel inducer: E-selectin induction on HUVECs. activation, % at 7.58 µM. actives 0.37% (n = 260,000). HUVEC E-selectin immunofluorescence imaging; normalized: neutral wells 0, TNF-alpha wells 100. AID 686992;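 active = mean E-selectin-positive cell signal at least 10% of the positive control, reached in at least 60% of replicates, without over 20% cell loss; inconclusive = no rule given, readout overlaps actives, possibly toxicity-flagged; inactive = the rest, including those meeting only one limit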
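System: HUVEC / Compound: single concentration / Signal: immunofluorescence imaging / Read-out: percent E-selectin-positive cells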
DENV2 CPE: DENV2-induced cell death inhibition; DENV2-infected cells, cytopathic effect rescue, plate reader; CPE inhibition, % at 9.99 µM; actives 1.7% (n = 350,000); AID 651640; in the data active = CPE inhibition above about 20%, passing the limit was not always enough; inconclusive = no clear call, values can overlap the other calls; tested in BHK-21 cells;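 note: 0% = median of neutral control wells and 100% = median of positive control wells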
The depositor's hits bear a star; ! = repeats disagree. A selection: hits, their analogues and other compounds. The true share with any hit is near 1.8%.

`O=C(c1ccccc1[N+](=O)[O-])N1CCN(c2ccc(N3CCOCC3)nn2)CC1` gave Cneo AK release -2.7, UUG fidelity -20.6 and E-sel inducer 58.2*.
For CO[C@H]1CN(C)C(=O)c2cc(NC(=O)C3CCC3)ccc2OC[C@@H](C)N(C)C[C@H]1C the results were Cneo AK release 42.6, E-sel inducer 0.3 and DENV2 CPE 3.0.
For CCCCCSc1nnc(N)s1 the results were DENV2 CPE 31.9*.
For N#Cc1cccc(-c2ccc(C3[C@@H]4CN(C(=O)c5cccnc5)C[C@H]3N4)cc2)c1 (stereo not given in full) the results were E-sel inducer inconclusive and DENV2 CPE 83.6*!.
N#Cc1cccc(-c2ccc(C3[C@@H]4CN(C(=O)c5ccc6c(c5)OCO6)C[C@H]3N4)cc2)c1 (stereo not given in full) was read as E-sel inducer -0.1 and DENV2 CPE inconclusive.
O=C(C1CCCC1)N1C[C@@H]2N[C@H](C1)C2c1ccc(-c2cccc(F)c2)cc1 (stereo not given in full) was read as E-sel inducer 0.0 and DENV2 CPE 47.3*!.
For Fc1cccc(-c2ccc(C3[C@@H]4CN(Cc5cncnc5)C[C@H]3N4)cc2)c1 (stereo not given in full) the results were E-sel inducer 0.0 and DENV2 CPE 28.1*!.
Screening N#Cc1cccc(-c2ccc(C3[C@@H]4CN(C(=O)C5CC5)C[C@H]3N4)cc2)c1 (stereo not given in full) returned E-sel inducer 0.5 and DENV2 CPE inconclusive.
`O=C(C1CC1)N1C[C@@H]2N[C@H](C1)C2c1ccc(-c2cccc(F)c2)cc1` (stereo not given in full) gave E-sel inducer 0.2 and DENV2 CPE 59.1*!.
Cc1cccc(-c2ccc(C3[C@@H]4CN(Cc5cccc(F)c5)C[C@H]3N4)cc2)c1 (stereo not given in full) was read as E-sel inducer -0.1 and DENV2 CPE -14.9.
COc1ccc2c(c1)/C(=C/c1cc(OC)c(OC)c(OC)c1)C(=O)N2 was read as E-sel inducer 0.1 and DENV2 CPE 29.5*.
`CCOC(=O)/C=C/c1cc(F)ccc1O` gave E-sel inducer -0.3 and DENV2 CPE 20.7*.

Reprinted from the part before: 3 compounds, then new ones.
Cc1cccc(-c2ccc(C3[C@@H]4CN(Cc5cccc(F)c5)C[C@H]3N4)cc2)c1 (stereo not given in full) was read as E-sel inducer -0.1 and DENV2 CPE -14.9.
COc1ccc2c(c1)/C(=C/c1cc(OC)c(OC)c(OC)c1)C(=O)N2 was read as E-sel inducer 0.1 and DENV2 CPE 29.5*.
`CCOC(=O)/C=C/c1cc(F)ccc1O` gave E-sel inducer -0.3 and DENV2 CPE 20.7*.
CCOC(=O)/C=C/c1cccc(C)c1O was read as E-sel inducer -0.1 and DENV2 CPE -2.0.
For Cc1noc(C)c1NC(=O)Nc1ccc2c(c1)C(=O)N([C@H](C)CO)C[C@@H](C)[C@H](CN(C)C(=O)Nc1ccc(F)cc1)OCCCC[C@@H](C)O2 the results were Cneo AK release 98.5*, UUG fidelity 24.6, E-sel inducer 0.0 and DENV2 CPE 3.6.
Screening Cc1noc(C)c1NC(=O)N(C)C[C@@H]1OCCCC[C@@H](C)Oc2ccc(NC(=O)Nc3cccc4ccccc34)cc2C(=O)N([C@@H](C)CO)C[C@@H]1C returned DENV2 CPE 37.6*.
Screening Cc1noc(C)c1NC(=O)N(C)C[C@H]1OCCCC[C@@H](C)Oc2ccc(NC(=O)Nc3cccc4ccccc34)cc2C(=O)N([C@@H](C)CO)C[C@H]1C returned Cneo AK release 9.0, UUG fidelity 14.1, E-sel inducer 0.2 and DENV2 CPE -3.3.
Cc1noc(C)c1NC(=O)N(C)C[C@@H]1OCCCC[C@@H](C)Oc2ccc(NC(=O)C3CCCCC3)cc2C(=O)N([C@@H](C)CO)C[C@@H]1C was read as Cneo AK release -2.2, UUG fidelity -0.9, E-sel inducer -0.2 and DENV2 CPE 25.2*.
Screening Cc1noc(C)c1NC(=O)N(C)C[C@@H]1OCCCC[C@H](C)Oc2ccc(NC(=O)Nc3ccc(C(F)(F)F)cc3)cc2C(=O)N([C@@H](C)CO)C[C@@H]1C returned Cneo AK release 0.2, UUG fidelity -7.8, E-sel inducer 0.4 and DENV2 CPE 29.6*.
Screening COc1ccc2c3c(n(C)c2c1)[C@H](CO)N(CC1CC1)CC31CCN(S(=O)(=O)c2cn(C)cn2)CC1 returned E-sel inducer 0.4 and DENV2 CPE 9.4.
Cc1noc(C)c1NC(=O)N[C@@H]1CC[C@H](CC(=O)NCc2ccc(Cl)c(Cl)c2)O[C@H]1CO was read as Cneo AK release -1.2, UUG fidelity -11.7, E-sel inducer 0.1 and DENV2 CPE inconclusive.
`Cc1noc(C)c1NC(=O)Nc1ccc2c(c1)C(=O)N([C@H](C)CO)C[C@H](C)[C@H](CN(C)Cc1ccc(Cl)c(Cl)c1)OCCCC[C@@H](C)O2` gave Cneo AK release -0.1, UUG fidelity 5.9, E-sel inducer 0.0 and DENV2 CPE 35.5*.
For Cc1noc(C)c1NC(=O)Nc1ccc2c(c1)C(=O)N([C@H](C)CO)C[C@H](C)[C@H](CN(C)C(=O)NC1CCCCC1)OCCCC[C@@H](C)O2 the results were Cneo AK release 1.8, UUG fidelity -1.5, E-sel inducer 0.2 and DENV2 CPE 30.8*!.
Cc1noc(C)c1NC(=O)Nc1ccc2c(c1)C(=O)N([C@@H](C)CO)C[C@@H](C)[C@@H](CN(C)C(=O)Nc1ccccc1)OCCCC[C@@H](C)O2 was read as Cneo AK release -4.1, UUG fidelity 15.4, E-sel inducer -0.3 and DENV2 CPE 21.8*.
Screening O=C(N[C@H]1CC[C@H](CCNS(=O)(=O)c2ccccc2)O[C@H]1CO)c1cnccn1 returned Cneo AK release 0.5, UUG fidelity -0.9, E-sel inducer -0.6 and DENV2 CPE -0.9.
For C[C@H]1CN([C@@H](C)CO)C(=O)c2cc(-c3cccc(F)c3)cnc2O[C@@H]1CN(C)C(=O)C1CCCCC1 the results were Cneo AK release -2.2, UUG fidelity 5.2, E-sel inducer 0.5 and DENV2 CPE -11.9.
For C[C@@H]1CCCCO[C@H](CN(C)CC2CCCCC2)[C@H](C)CN([C@H](C)CO)C(=O)c2cc(NC(=O)CCC(F)(F)F)ccc2O1 the results were Cneo AK release -7.5, UUG fidelity 14.5, E-sel inducer 0.1 and DENV2 CPE 11.2.
`CCO[C@H]1OC(C(=O)NC2CC2)=C[C@@H](c2coc3ccccc3c2=O)[C@@H]1CCCO` gave Cneo AK release -2.6, UUG fidelity 10.2, E-sel inducer 0.0 and DENV2 CPE -5.3.
For CCO[C@H]1OC(C(=O)O)=C[C@@H](c2coc3ccccc3c2=O)[C@@H]1CCCO the results were Cneo AK release 0.9, UUG fidelity -6.5, E-sel inducer 0.3 and DENV2 CPE -11.7.
`CCO[C@@H]1OC(C(=O)NCc2ccccc2)=C[C@H](c2coc3ccccc3c2=O)[C@H]1CCCO` gave Cneo AK release -0.7, UUG fidelity 0.2, E-sel inducer -0.1 and DENV2 CPE 46.7*.
For CCO[C@H]1OC(C(=O)Nc2ccccc2)=C[C@@H](c2coc3ccccc3c2=O)[C@@H]1CCCO the results were Cneo AK release 10.7, UUG fidelity 20.9, E-sel inducer 0.0 and DENV2 CPE 23.3*!.
